The assay concerns the target human β2-adrenergic receptors (Homo sapiens, UniProt P07550). The assay is described as follows: β2-AR mediated stimulation of cAMP accumulation in HEK cells. Particulars: for % Stimulation: induced stimulation of cAMP accumulation, HEK cells containing human β2-AR.

Structures are written as SMILES.

Data on three compounds can be found in article PMC2832585 (Bioorganic & medicinal chemistry, 2009).

Turning to `COc1ccc(C[C@@H](C)NC[C@H](O)c2cc(O)cc(O)c2)cc1` [(R,R)-2, (R,R)-methoxyfenoterol], the “% Stimulation” value is given as 136 ± 11%.
As for `CC[C@H](Cc1ccc(O)cc1)NC[C@H](O)c1cc(O)cc(O)c1` [(R,R)-52, (R,R-(−)-5-(1-Hydroxy-2-(1-hydroxyphenyl)butan-2-ylamino)ethyl) benzene-1,3-diol], the “agonist classification with respect to cAMP stimulation” value was “full β2-AR agonists”.
For `COc1ccc(C[C@H](C)NC[C@H](O)c2cc(O)cc(O)c2)cc1` [(R,S)-2], the “% Stimulation” value worked out at 120 ± 19%.
